Ki data for nine compounds are collected here from patent US5338845A, “Aspergillus species, cyclic dimeric dipeptide derivative substance P antagonist biosynthetic products thereof, and process for preparation thereof” (Sterling Winthrop Inc., priority 1992, dated 1994).

Protein sequences, listed by entry. Tags and fused reporters are not part of them.
UniProt P30547, whole entry: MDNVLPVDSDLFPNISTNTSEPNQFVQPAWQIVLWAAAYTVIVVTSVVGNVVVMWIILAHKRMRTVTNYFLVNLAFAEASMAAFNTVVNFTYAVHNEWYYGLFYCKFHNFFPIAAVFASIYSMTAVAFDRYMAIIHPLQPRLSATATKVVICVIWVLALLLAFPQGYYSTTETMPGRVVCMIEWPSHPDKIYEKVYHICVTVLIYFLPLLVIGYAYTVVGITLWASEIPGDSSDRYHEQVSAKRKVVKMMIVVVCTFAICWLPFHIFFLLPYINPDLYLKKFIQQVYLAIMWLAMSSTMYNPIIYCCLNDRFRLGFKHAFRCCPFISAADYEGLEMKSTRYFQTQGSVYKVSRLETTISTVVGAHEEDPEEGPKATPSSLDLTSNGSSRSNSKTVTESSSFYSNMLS
UniProt P25103, whole entry: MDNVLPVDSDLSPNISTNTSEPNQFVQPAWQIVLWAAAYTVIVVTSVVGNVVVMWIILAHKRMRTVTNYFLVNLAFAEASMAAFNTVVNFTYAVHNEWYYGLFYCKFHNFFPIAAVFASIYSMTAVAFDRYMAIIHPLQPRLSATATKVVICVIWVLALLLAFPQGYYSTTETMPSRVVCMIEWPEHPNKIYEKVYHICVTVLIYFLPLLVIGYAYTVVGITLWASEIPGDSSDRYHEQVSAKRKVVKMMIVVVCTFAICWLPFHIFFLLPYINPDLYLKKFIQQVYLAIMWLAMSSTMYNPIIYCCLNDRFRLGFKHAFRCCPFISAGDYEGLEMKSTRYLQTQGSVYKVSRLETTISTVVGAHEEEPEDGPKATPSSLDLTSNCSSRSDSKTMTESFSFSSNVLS

Test [1] addresses NK1 (Cavia porcellus, UniProt P30547). Description: Substance P NK1 receptor binding, tritiated Substance P, guinea pig submaxillary gland tissue. To be noted: read-out: Ki Guinea Pig Submaxillary Gland Tissue (Substance P antagonist potency); tritiated Substance P 0.75 nM; Ki calculated from IC50 by Cheng-Prusoff. Here is the method: (§1) As stated above the compounds of Formula I are useful as Substance P antagonists and therefore as analgesic and/or antiinflammatory agents. Substance P antagonist NK1 receptor binding activity was determined using guinea pig submaxillary gland tissue and human astrocytoma cells.
Submaxillary glands from both sexes of Hartley guinea pigs were obtained from Pel Freeze Biologicals, Rogers, Arkansas by overnight express in a plastic bag kept cold in wet ice. Extraneous tissue was removed and the glands were homogenized (Brinkman Polytron 10TS generator, 3-4 10-second bursts at a setting of 10) in ice cold buffer C (sodium chloride, 120 mM; potassium chloride, 5 mM; tromethamine [TRIS], 50 mM; pH adjusted to 7.40 with dilute hydrochloric acid; 100 mL for 50 submaxillary glands). The homogenate was centrifuged (16,000×g) at 4° C. for 15 minutes and the supernatant fluid was discarded. In order to release any native bound Substance P from its receptor approximately 200 mL of buffer B (potassium chloride, 500 mM; tromethamine, 50 mM; ethylenediaminetetraacetic acid [EDTA], 10 mM; pH adjusted to 7.40 with dilute hydrochloric acid) was added to the pellet, which was resuspended by low speed homogenization. The suspension was incubated at ice temperature for 30 minutes with periodic swirling and centrifuged, and the supernatant liquid was discarded. Tromethamine buffer (50 mM, pH adjusted to 7.40 with dilute hydrochloric acid, 200 mL) was added, the pellet was resuspended, the suspended mixture was centrifuged, the supernatant fluid was discarded, and this procedure was repeated. About twice the pellet volume of tromethamine buffer was added to the pellet and the resulting submaxillary gland tissue preparation (1.0 to 1.5 mL) was stored at -70° C. Using serum bovine albumin as the standard the protein yield was determined by the Bradford method (Bio-Rad, Richmond, Calif.) to be 7-8 mg/mL or about 250 mg from 50 submaxillary glands.
To test for receptor binding a sample of the submaxillary gland tissue preparation was thawed on ice and rehomogenized with a glass homogenizer (Dounce). To a polystyrene test tube were added an aliquot of the resulting homogenate (200 μL containing 150-300 μg of protein), tromethamine buffer (100 μL), protease buffer (aqueous chymostatin, 5 μg/mL; leupeptin, 10 μg/mL; bacitracin, 100 μg/mL; manganous chloride, 3 mM; bovine serum albumin, 0.05%; tromethamine, 50 mM; pH adjusted to 7.40 with dilute hydrochloric acid; 100 μL) and tritiated Substance P (44-54 Ci/millimole, 0.75 nM in protease buffer, 100 μL). Dimethylsulfoxide alone (5 μL) or a dimethylsulfoxide solution (5 μL) of the test compound (amount such that 1:100 dilution gave the desired concentration thereof) was added to the tube. The mixture was allowed to reach equilibrium for 20-30 minutes, then filtered (Whatman GF/C filter, Brandel harvester). The residue on the filter was washed three times with tromethamine buffer (3 mL each time) and its radioactivity was measured in a liquid scintillation counter (Beckman LS5000) (x=number of counts per minute with test compound, y=number of counts per minute without test compound). Adding a large excess of untritiated Substance P (1 μM) to the protease buffer and carrying out the procedure without test compound gave a measure (z=number of counts per minute) of the nonspecific binding, which was generally less than 10% of the total binding. The dissociation constant (Kd) for receptor binding was determined by varying the concentration of tritiated Substance P. The following calculations were made:
L=1n(% inhibition/% bound).
Values of L for each test compound were plotted against the corresponding values of the log of the concentration of the test compound, a linear regression line was constructed, and the concentration of the test compound corresponding to L=0, which is defined as the IC50 value, was determined. […]

The target in test [2] is NK1 (Homo sapiens, UniProt P25103). Description: Substance P NK1 receptor binding, 125I-Bolton Hunter Substance P, human astrocytoma cells (U-373 MG). To be noted: read-out: Ki Human Astrocytoma Cells (Substance P antagonist potency), U-373 MG cells, Ki calculated from IC50. Here is the method: as §1
Human astrocytoma cells (U--373 MG, ATCC No. HTB 17) were cultured in 75-mL flasks in an aqueous medium containing horse serum (heat inactivated, 10%), minimum essential amino acids (2%), minimum essential vitamin solution (2%), and an aqueous solution of penicillin (10,000 units/mL) and streptomycin (10,000 μg/mL) (Penn-Strep, 2%), which was sterilized by filtration through a disposable filter (Nalgene, VWR Cat. No. 28199-585). The medium was replaced twice weekly. Cells were passaged (1:4 split) by removing the medium and adding aqueous trypsin (0.25%, 8 mL/flask). The flasks were swirled for 30 seconds, the aqueous trypsin was removed, and the cells were incubated for 5 minutes at room temperature, then washed twice with fresh medium (7 mL each time). Poly-D-lysine solution (50 μg/mL in aqueous phosphate saline buffer, 0.25 mL) was added to each well of a sterile 96-well […] plate (Corning), which was then incubated at room temperature for 40 minutes. The poly-D-lysine solution was removed, each well was washed twice with aqueous phosphate saline buffer (0.25 mL), cells were added (0.2 mL/well), and the plate was incubated at 37° C. for two days in an oxygen-carbon dioxide (95:5) atmosphere to provide a monolayer of 1.4-1.9×10^4 cells per well.
To test for receptor binding the aqueous phosphate saline buffer was removed from each well, the cell monolayer was washed three times with assay buffer (aqueous 2-[4-(2-hydroxyethyl)-1-piperazinyl]ethanesulfonic acid [HEPES], 25 mM; potassium chloride, 5.8 mM; monopotassium phosphate, 2.2 mM; sodium chloride, 115 mM; magnesium sulfate, 0.6 mM; calcium chloride, 1.8 mM; bovine serum albumin, 1%; glucose, 5 mM; thiorphan, 1 μM; and bacitracin, 40 μg/mL; pH adjusted to 7.40 with dilute hydrochloric acid; 0.25 mL each time). To each well was then added assay buffer alone (0.1 mL) or a mixture (0.1 mL) with assay buffer as diluent containing ^125 I-Bolton Hunter Substance P (Amersham, Inc., Arlington Heights, Ill.; 0.1 nanomole) and test compound in amount to give the desired concentration thereof or, to determine nonspecific binding, unlabelled Substance P (0.1 micromole) and the plate was incubated at 25° C. for 90 minutes. Excess assay buffer or Substance P mixture was then removed and each well was washed four times with assay buffer (0.25 mL each time). The cells were detached from each well by addition of aqueous octoxynol (Triton X-100, 0.2%, 140 μL) containing bovine serum albumin (1 mg/L). The radioactivity of part (100 μL) of the detachment mixture was measured in a gamma ray counter (Packard Cobra). Kd and IC50 values were determined and a Ki value was calculated for each test compound as described above.

Broadly, the Ki is the dissociation constant of the complex between target and ligand, obtained from inhibition or displacement.

With `O=C1N[C@@H](Cc2ccccc2)C(=O)N2[C@H]3Nc4cc(F)ccc4[C@@]3([C@]34C[C@H]5C(=O)N[C@@H](Cc6ccccc6)C(=O)N5[C@H]3Nc3cc(F)ccc34)C[C@@H]12`, the Ki on NK1 [1] was 1570 nM; at NK1 [2] it was 170 nM.
In the same order, the values of `CC=CC[C@@H]1NC(=O)[C@@H]2C[C@]3([C@]45C[C@H]6C(=O)N[C@@H](Cc7ccccc7)C(=O)N6[C@H]4Nc4ccccc45)c4ccccc4N[C@@H]3N2C1=O` are 3200 nM and 2050 nM.
In the case of `O=C1N[C@@H](Cc2ccccc2)C(=O)N2[C@H]3Nc4ccccc4[C@@]3([C@]34C[C@H]5C(=O)N[C@@H](Cc6ccccc6)C(=O)N5[C@H]3Nc3cc(F)ccc34)C[C@@H]12`, the Ki at NK1 [1] is 2270 nM; at NK1 [2] it was 260 nM.
Regarding `O=C1N[C@@H](Cc2cccc(F)c2)C(=O)N2[C@H]3Nc4ccccc4[C@@]3([C@]34C[C@H]5C(=O)N[C@@H](Cc6cccc(F)c6)C(=O)N5[C@H]3Nc3ccccc34)C[C@@H]12`, the inhibition constant (Ki) on NK1 [1] is 1140 nM; on NK1 [2], 170 nM.
For the compound `CC(C)C[C@@H]1NC(=O)[C@@H]2C[C@]3([C@]45C[C@H]6C(=O)N[C@@H](Cc7ccccc7)C(=O)N6[C@H]4Nc4ccccc45)c4ccccc4N[C@@H]3N2C1=O`, the Ki at NK1 [1] is 4100 nM; on NK1 [2], 3950 nM.
Regarding `O=C1N[C@@H](Cc2ccccc2)C(=O)N2[C@H]3Nc4ccccc4[C@@]3([C@]34C[C@H]5C(=O)N[C@@H](Cc6ccccc6)C(=O)N5[C@H]3Nc3ccc(F)cc34)C[C@@H]12`, the Ki at NK1 [1] was 9500 nM; at NK1 [2], 1850 nM.
Consider `O=C1N[C@@H](Cc2ccccc2)C(=O)N2[C@H]3Nc4ccc(F)cc4[C@@]3([C@]34C[C@H]5C(=O)N[C@@H](Cc6ccccc6)C(=O)N5[C@H]3Nc3ccc(F)cc34)C[C@@H]12`, for which the Ki was 20000 nM at NK1 [1] and 2850 nM on NK1 [2].
As to `O=C1N[C@@H](Cc2ccccc2)C(=O)N2[C@H]3Nc4ccccc4[C@@]3([C@]34C[C@H]5C(=O)N[C@@H](Cc6cccc(F)c6)C(=O)N5[C@H]3Nc3ccccc34)C[C@@H]12`, the Ki on NK1 [1] is 2560 nM; on NK1 [2] it was 380 nM.
For the compound `O=C1N[C@@H](Cc2ccccc2F)C(=O)N2[C@H]3Nc4ccccc4[C@@]3([C@]34C[C@H]5C(=O)N[C@@H](Cc6ccccc6F)C(=O)N5[C@H]3Nc3ccccc34)C[C@@H]12`, the Ki on NK1 [1] was 5800 nM; at NK1 [2] it was 630 nM.
